Source: US8765775B2, “Anti-angiogenic compounds” (Universitaet Zuerich, priority 2008, dated 2014)

Target: T1, EphB4 (Homo sapiens, UniProt P54760)
T1 sequence (P54760 16-987): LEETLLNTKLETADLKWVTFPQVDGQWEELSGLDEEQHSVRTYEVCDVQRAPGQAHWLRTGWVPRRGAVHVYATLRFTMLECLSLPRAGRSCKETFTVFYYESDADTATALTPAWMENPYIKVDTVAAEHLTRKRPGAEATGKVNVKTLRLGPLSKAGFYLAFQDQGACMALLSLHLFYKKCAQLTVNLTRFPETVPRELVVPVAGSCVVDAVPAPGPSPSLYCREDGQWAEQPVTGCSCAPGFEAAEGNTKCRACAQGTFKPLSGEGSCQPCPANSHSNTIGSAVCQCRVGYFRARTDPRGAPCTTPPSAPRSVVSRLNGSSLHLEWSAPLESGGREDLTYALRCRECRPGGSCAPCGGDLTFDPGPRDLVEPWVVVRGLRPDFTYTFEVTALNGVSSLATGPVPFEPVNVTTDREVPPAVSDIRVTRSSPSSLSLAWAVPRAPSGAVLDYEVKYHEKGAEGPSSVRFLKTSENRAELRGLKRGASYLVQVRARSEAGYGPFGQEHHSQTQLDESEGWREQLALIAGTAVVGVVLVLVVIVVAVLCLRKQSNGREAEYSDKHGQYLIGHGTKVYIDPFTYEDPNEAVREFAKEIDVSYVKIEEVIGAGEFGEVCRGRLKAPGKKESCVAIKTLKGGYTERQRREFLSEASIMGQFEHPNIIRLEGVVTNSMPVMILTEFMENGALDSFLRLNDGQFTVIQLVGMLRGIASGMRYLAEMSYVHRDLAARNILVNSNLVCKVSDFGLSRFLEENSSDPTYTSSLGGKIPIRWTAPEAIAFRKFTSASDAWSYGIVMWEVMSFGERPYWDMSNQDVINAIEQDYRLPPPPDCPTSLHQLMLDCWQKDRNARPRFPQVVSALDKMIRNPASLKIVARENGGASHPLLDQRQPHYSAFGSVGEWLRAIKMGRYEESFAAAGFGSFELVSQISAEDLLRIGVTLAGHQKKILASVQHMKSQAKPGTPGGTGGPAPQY
Test: Panvera Z'Lyte FRET-based enzymatic assay

## Cn1c(=O)[nH]c(=O)c2c1nc1n(CCCCO)c(-c3ccccc3)cn21 [Compound 2]
  Ligand efficiency LE (−ΔG exp binding/HAC): 0.3 kcal·mol^−1 per heavy atom
